## Yeast mating assay 1: variants of the scFv Ab-14

Target: peptide PDVDLGDISGINAS, taken from heptad repeat 2 (HR2) of SARS-CoV-2 spike.

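Library AAYL50 holds single substitutions and randomly drawn double and triple substitutions in the CDRs. The assay is AlphaSeq: two haploid yeast populations carry antibody and antigen on their surface. Binding brings cells together so that they mate, and sequencing counts the barcode pairs among the diploids. The ratio of observed to expected reads was calibrated, replicate by replicate, on BCL2-family standards whose Kd was known from biolayer interferometry. There are three technical replicates.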

Each scFv is VH, a (GGGGS)3 linker, VL, as in the parent Ab-14, and differs from it in the CDRs of the light chain only.
VH: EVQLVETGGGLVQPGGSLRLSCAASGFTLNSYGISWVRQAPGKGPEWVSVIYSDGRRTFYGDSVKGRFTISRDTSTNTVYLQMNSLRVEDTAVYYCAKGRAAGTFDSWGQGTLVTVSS
VL: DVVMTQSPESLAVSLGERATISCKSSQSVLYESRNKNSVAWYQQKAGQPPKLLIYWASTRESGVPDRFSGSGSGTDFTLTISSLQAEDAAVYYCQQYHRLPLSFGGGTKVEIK

Substitutions are numbered in sequence along the VL above, starting at 1 (not Kabat). All variants listed here change S103 of the VL, counted from its first residue. Each Kd is an estimate from the mating assay, the geometric mean of the replicates in which the pair was seen; lower is stronger. Where no diploid with the target was found in any replicate, the entry reads "no signal": below detection, most likely a poor binder, though not proof of it. Three control strains display no target. For library AAYL50, 18% of the pairings with them gave a signal, with a median of 15 µM and one signal in twenty below 970 nM, so weak values seen in few replicates may be background.

* Y31D Q96F S103D -> 14 nM (3 of 3 replicates)
* W56S S62H S103F -> 2.0 nM (3 of 3 replicates)
* S33W R60K S103M -> 140 nM (3 of 3 replicates)
* Q27D S58P S103C -> no signal (0 of 3 replicates)
* L30D R99W S103C -> 5.1 nM (3 of 3 replicates)
* S38M V39A S103I -> 21 µM (1 of 3 replicates)
* R34W V39A S103F -> no signal (0 of 3 replicates)
* S26G E32R S103Y -> 1.9 µM (3 of 3 replicates)
* S26Q Y97I S103K -> no signal (0 of 3 replicates)
* K24H K36H S103Q -> 340 nM (3 of 3 replicates)
* E32T Q96E S103H -> 540 nM (3 of 3 replicates)
* V29Q A57K S103C -> 430 nM (1 of 3 replicates)
* A57H Q96T S103F -> 6.8 µM (1 of 3 replicates)
* S25C Q95R S103N -> 8.6 nM (3 of 3 replicates)
* A40C L100K S103M -> 4.0 µM (1 of 3 replicates)
* K24I V29F S103G -> 53 nM (3 of 3 replicates)
* V39G S103D -> 42 µM (1 of 3 replicates)
* E61F Q96N S103G -> 2.0 µM (1 of 3 replicates)
* N37G L100C S103R -> 4.2 µM (1 of 3 replicates)
* S58N Q95V S103E -> 61 µM (1 of 3 replicates)
* L100N S103L -> 35 nM (3 of 3 replicates)
* L30K S38C S103I -> 36 µM (2 of 3 replicates)
* A40N S62Y S103R -> 980 nM (1 of 3 replicates)
* S25D S103H -> 6.7 nM (3 of 3 replicates)
* S33H S58I S103W -> no signal (0 of 3 replicates)
* R99H S103H -> 5.7 nM (3 of 3 replicates)
* S33T Y97S S103P -> no signal (0 of 3 replicates)
* S28L S103I -> no signal (0 of 3 replicates)
* V29Y R34D S103I -> 5.5 nM (3 of 3 replicates)
* K24T S25V S103D -> 380 nM (2 of 3 replicates)
* Y31C S38N S103V -> 65 nM (3 of 3 replicates)
* E32T K36S S103Y -> no signal (0 of 3 replicates)
* N35V P101A S103Q -> 720 nM (3 of 3 replicates)
* V29S A57R S103W -> 310 nM (3 of 3 replicates)
* E32R Y97F S103E -> 5.1 µM (3 of 3 replicates)
* S38N H98Y S103E -> 2.1 nM (3 of 3 replicates)
* K36F R60Q S103P -> no signal (0 of 3 replicates)
* Q27F Y97D S103E -> 83 µM (2 of 3 replicates)
* K36H E61C S103L -> 20 nM (3 of 3 replicates)
* A57H L102D S103Q -> 12 µM (1 of 3 replicates)
* W56P S103K -> 210 nM (3 of 3 replicates)
* N35L S103H -> no signal (0 of 3 replicates)
* S25T S103K -> 180 nM (3 of 3 replicates)
* A40M H98C S103N -> 130 µM (3 of 3 replicates)
* Y97P S103R -> 2.5 µM (1 of 3 replicates)
* S62F L100P S103L -> no signal (0 of 3 replicates)

Values reported by Engelhart et al. 2022, doi:10.1038/s41597-022-01779-4 (FLAb copy).